Consider one compound from PubChem BioAssay AID435030 (The Scripps Research Institute Molecular Screening Center, 2010).

The entries are a selection whose mix differs from that of the whole data set. Active and inactive are the calls of the source. Cut-off read from the data, not from the text of the source: active = inhibition above about 12%; inactive = the rest.

This assay is described as follows: reduced growth of AddAB-expressing E. coli cells – absorbance, AddAB inhibitor project, primary screen (AID 435030).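 Note: 0% = vehicle wells of infected cells.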 To be noted: E. coli expressing H. pylori AddAB, at 11.9 µM, hits give high values.
Take `COc1ccc(C[C@H](C)NC[C@@H](O)c2ccc(O)c(NC=O)c2)cc1`: the inhibition (commonly how much of the control response was suppressed) was active: 45.7%.
